These are literature values, as cited in patent US6383762B1, “Methods of obtaining compounds that interact with a human serotonin (5-HT2) receptor” (Synaptic Pharmaceutical Corporation, priority 1989, dated 2002).

Amino acid sequences for entries named in this document (tags omitted).
UniProt P14842, whole entry: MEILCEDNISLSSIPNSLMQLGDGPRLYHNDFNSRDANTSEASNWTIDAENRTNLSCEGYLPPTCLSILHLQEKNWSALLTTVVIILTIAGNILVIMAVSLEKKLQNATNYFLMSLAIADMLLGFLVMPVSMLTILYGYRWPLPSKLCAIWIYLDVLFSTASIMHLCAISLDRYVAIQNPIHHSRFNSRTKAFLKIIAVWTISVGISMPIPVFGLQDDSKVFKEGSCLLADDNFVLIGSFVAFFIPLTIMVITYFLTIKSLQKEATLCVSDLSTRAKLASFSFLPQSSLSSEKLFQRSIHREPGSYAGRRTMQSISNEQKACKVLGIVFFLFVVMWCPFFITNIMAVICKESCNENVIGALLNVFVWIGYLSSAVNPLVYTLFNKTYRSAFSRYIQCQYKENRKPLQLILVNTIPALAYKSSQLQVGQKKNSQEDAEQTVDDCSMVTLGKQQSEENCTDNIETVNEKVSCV

The data set deals with T1, 5-HT2 receptor in rat cortical membranes (Rattus norvegicus, UniProt P14842).
T1 construct: rather than in rat cortical membranes; host or cells: rat cortical membranes
Particulars: rat cortex; Hoyer et al. 1986; cited from earlier work.

In general, Ki refers to a measure of affinity in units of concentration, obtained from inhibition or displacement. In the case of `O=C(CCCN1CCC2(CC1)C(=O)NCN2c1ccccc1)c1ccc(F)cc1` [SPIPERONE], the Ki is 1.5 nM.
